#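 Cultured in 96-well plates, cells were exposed to test compound for 48 hours across five concentrations. TGI: concentration producing complete growth inhibition.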
# How the values were obtained:
# Assay in all cases: growth of human tumour cells (NCI), 48 h
# NCI/ADR-RES ovarian = system: NCI/ADR-RES ovarian
# OVCAR-3 ovarian = system: OVCAR-3 ovarian
# DU-145 prostate = system: DU-145 prostate
# HCT-116 colon = system: HCT-116 colon
# M14 melanoma = system: M14 melanoma
# TK-10 renal = system: TK-10 renal
# HL-60(TB) leukemia = system: HL-60(TB) leukemia
# 786-0 renal = system: 786-0 renal
# MCF7 breast = system: MCF7 breast
# SN12C renal = system: SN12C renal
# HOP-92 NSCLC = system: HOP-92 NSCLC
# MDA-MB-231 breast = system: MDA-MB-231 breast
# CCRF-CEM leukemia = system: CCRF-CEM leukemia
# UACC-257 melanoma = system: UACC-257 melanoma
# UACC-62 melanoma = system: UACC-62 melanoma
# MDA-MB-435 = system: MDA-MB-435
# U251 CNS = system: U251 CNS
# IGROV1 ovarian = system: IGROV1 ovarian
# NCI-H522 lung = system: NCI-H522 lung
# SW-620 colon = system: SW-620 colon
# MDA-N = system: MDA-N
# SK-MEL-2 melanoma = system: SK-MEL-2 melanoma
# SK-OV-3 ovarian = system: SK-OV-3 ovarian
# OVCAR-5 ovarian = system: OVCAR-5 ovarian
# HT29 colon = system: HT29 colon
# LOX IMVI melanoma = system: LOX IMVI melanoma
# UO-31 renal = system: UO-31 renal
# CAKI-1 renal = system: CAKI-1 renal
# A498 renal = system: A498 renal
# T-47D breast = system: T-47D breast
# HOP-62 NSCLC = system: HOP-62 NSCLC
# EKVX NSCLC = system: EKVX NSCLC
# MALME-3M melanoma = system: MALME-3M melanoma
# OVCAR-4 ovarian = system: OVCAR-4 ovarian
# SNB-19 CNS = system: SNB-19 CNS
# RXF 393 renal = system: RXF 393 renal
# HCT-15 colon = system: HCT-15 colon
# KM12 colon = system: KM12 colon
# NCI-H23 lung = system: NCI-H23 lung
# HS 578T breast = system: HS 578T breast
# A549 NSCLC = system: A549 NSCLC
# ACHN renal = system: ACHN renal
# BT-549 breast = system: BT-549 breast
# HCC-2998 colon = system: HCC-2998 colon
# SK-MEL-28 melanoma = system: SK-MEL-28 melanoma
# OVCAR-8 ovarian = system: OVCAR-8 ovarian
# SF-268 CNS = system: SF-268 CNS
# PC-3 prostate = system: PC-3 prostate
smiles,measurement,setting,value
COc1ccc2c3c1O[C@H]1C4(OC)C=CC5(C6C(=O)NNC(=O)C64)C(C2)N(C)CCC315 (stereo partly drawn),TGI,NCI/ADR-RES ovarian,> 100 µM
same,TGI,OVCAR-3 ovarian,> 100 µM
same,TGI,DU-145 prostate,> 100 µM
same,TGI,HCT-116 colon,> 100 µM
same,TGI,M14 melanoma,> 100 µM
same,TGI,TK-10 renal,> 100 µM
same,TGI,HL-60(TB) leukemia,> 100 µM
same,TGI,786-0 renal,> 100 µM
same,TGI,MCF7 breast,> 100 µM
same,TGI,SN12C renal,> 100 µM
same,TGI,HOP-92 NSCLC,> 100 µM
same,TGI,MDA-MB-231 breast,> 100 µM
same,TGI,CCRF-CEM leukemia,> 100 µM
same,TGI,UACC-257 melanoma,> 100 µM
same,TGI,UACC-62 melanoma,> 100 µM
same,TGI,MDA-MB-435,> 100 µM
same,TGI,U251 CNS,> 100 µM
same,TGI,IGROV1 ovarian,> 100 µM
same,TGI,NCI-H522 lung,> 100 µM
same,TGI,SW-620 colon,> 100 µM
same,TGI,MDA-N,> 100 µM
same,TGI,SK-MEL-2 melanoma,> 100 µM
same,TGI,SK-OV-3 ovarian,> 100 µM
same,TGI,OVCAR-5 ovarian,> 100 µM
same,TGI,HT29 colon,> 100 µM
same,TGI,LOX IMVI melanoma,> 100 µM
same,TGI,UO-31 renal,> 100 µM
same,TGI,CAKI-1 renal,> 100 µM
same,TGI,A498 renal,> 100 µM
same,TGI,T-47D breast,> 100 µM
same,TGI,HOP-62 NSCLC,> 100 µM
same,TGI,EKVX NSCLC,> 100 µM
same,TGI,MALME-3M melanoma,> 100 µM
same,TGI,OVCAR-4 ovarian,> 100 µM
same,TGI,SNB-19 CNS,> 100 µM
same,TGI,RXF 393 renal,> 100 µM
same,TGI,HCT-15 colon,> 100 µM
same,TGI,KM12 colon,> 100 µM
same,TGI,NCI-H23 lung,> 100 µM
same,TGI,HS 578T breast,> 100 µM
same,TGI,A549 NSCLC,> 100 µM
same,TGI,ACHN renal,> 100 µM
same,TGI,BT-549 breast,> 100 µM
same,TGI,HCC-2998 colon,> 100 µM
same,TGI,SK-MEL-28 melanoma,93.5 µM
same,TGI,OVCAR-8 ovarian,> 100 µM
same,TGI,SF-268 CNS,> 100 µM
same,TGI,PC-3 prostate,> 100 µM

# Source: PubChem BioAssay (NCI)
